Assay results taken from patent publication US9803002B2, “Anti-wall teichoic antibodies and conjugates” (Genentech, Inc., priority 2013, dated 2017).

Assays:
Wood46 = assay: Cell based FRET cleavage assay; parameters: species or system Staphylococcus aureus; conditions: 2 μM FRET peptide, 10^8 and 10^7 cells/ml, 37° C.
Procedure: (§1) The thio-S4497-MP-K(Tamra)[…](Fluorescein) (“core peptide” disclosed as SEQ ID NO: 125) FRET conjugate and non-binding control FRET conjugate, thio-trastuzumab-MP-K(Tamra)[…](Fluorescein) (“core peptide” disclosed as SEQ ID NO: 125), were incubated with log phase cultures of Wood46 (FIG. 28) and the wild type, USA300 (FIG. 29), at cell densities of 10^8 cells/ml and 10^7 cells/ml in tryptic soy broth (TSB). The final concentration of MP-Lys(TAMRA)-[…]fluorescein) (“core peptide” disclosed as SEQ ID NO: 125) for all wells was 2 μM. Fluorescence was monitored over time at 37° C., excitation λ495 nm/emission λ518 nm. […] The linker unit MP-K(Tamra)[…](Fluorescein) (“core peptide” disclosed as SEQ ID NO: 125) is cleaved in both Wood46 and USA300 when conjugated to an antibody that binds S. aureus. Validating the cleavage of this model linker in USA300 was critical due to its relevance to the clinical strain of MRSA that a potential therapeutic antibody-antibiotic conjugate (AAC) would target. […] Cell density affects the rate of cleavage, with cleavage occurring earlier in cultures of the higher cell density.
(§2) Cultures of Wood46 and USA300 were inoculated with a 1:200 dilution of overnight cultures (0.1 ml in 20 ml) in TSB and incubated at 37° C. with shaking. […] Plates were incubated at 37° C. and fluorescence was monitored over time, excitation λ495 nm/emission λ518 nm, for 210 minutes.

USA300 = assay: Cell based FRET cleavage assay; parameters: species or system Staphylococcus aureus; conditions: 2 μM FRET peptide, 10^8 and 10^7 cells/ml, 37° C.
Procedure: as §1, §2

## thio-trastuzumab-MP-K(Tamra)GGAFAGGGK(Fluorescein): non-binding control FRET conjugate on anti-Her2 thioMab trastuzumab
Wood46
  fluorescence over time (linker cleavage): did not show an increase in fluorescence
USA300
  fluorescence over time (linker cleavage): did not show an increase in fluorescence
